Values quoted from earlier work, collected in patent US12521377B2, “Uses of (+)-B-dihydrotetrabenazine in methods of treating movement disorder” (ADEPTIO PHARMACEUTICALS LIMITED, priority 2017, dated 2026).

Sequences of proteins named here, by UniProt entry; tags and fusion partners are left off.
UniProt Q01827, whole entry: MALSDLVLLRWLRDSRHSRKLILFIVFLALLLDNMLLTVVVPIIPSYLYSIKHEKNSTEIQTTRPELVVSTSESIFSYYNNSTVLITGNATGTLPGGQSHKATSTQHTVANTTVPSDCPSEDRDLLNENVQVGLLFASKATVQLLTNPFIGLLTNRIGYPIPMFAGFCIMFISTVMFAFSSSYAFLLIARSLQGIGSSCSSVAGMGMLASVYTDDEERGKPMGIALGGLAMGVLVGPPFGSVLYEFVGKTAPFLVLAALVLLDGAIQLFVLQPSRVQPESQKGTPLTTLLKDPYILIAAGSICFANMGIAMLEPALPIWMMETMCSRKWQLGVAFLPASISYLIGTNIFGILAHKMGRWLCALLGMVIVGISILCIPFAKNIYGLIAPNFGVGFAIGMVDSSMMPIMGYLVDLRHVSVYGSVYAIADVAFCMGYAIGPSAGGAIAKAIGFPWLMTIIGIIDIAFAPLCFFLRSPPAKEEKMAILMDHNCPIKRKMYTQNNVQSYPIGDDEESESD
UniProt Q05940, whole entry: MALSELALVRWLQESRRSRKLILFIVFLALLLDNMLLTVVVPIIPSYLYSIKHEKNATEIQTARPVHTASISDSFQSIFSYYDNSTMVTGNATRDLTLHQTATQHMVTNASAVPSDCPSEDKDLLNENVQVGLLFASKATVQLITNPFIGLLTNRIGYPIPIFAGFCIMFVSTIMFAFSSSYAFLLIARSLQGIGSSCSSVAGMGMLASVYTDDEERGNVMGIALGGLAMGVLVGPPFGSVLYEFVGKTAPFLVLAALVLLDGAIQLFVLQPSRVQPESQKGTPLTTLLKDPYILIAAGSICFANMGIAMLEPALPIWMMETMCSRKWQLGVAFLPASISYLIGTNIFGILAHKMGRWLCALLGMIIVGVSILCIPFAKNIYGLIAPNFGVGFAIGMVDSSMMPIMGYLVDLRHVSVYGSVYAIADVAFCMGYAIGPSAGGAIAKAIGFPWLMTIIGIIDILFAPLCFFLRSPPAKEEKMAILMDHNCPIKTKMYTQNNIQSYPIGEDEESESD

How the values were obtained:
[1] = molecular target: VMAT2 (Rattus norvegicus, UniProt Q01827); settings: comparison among the eight dihydrotetrabenazine isomers; cited from earlier work
[2] = molecular target: VMAT2 (Homo sapiens, UniProt Q05940); settings: cited from earlier work

COc1cc2c(cc1OC)[C@H]1C[C@@H](O)[C@H](CC(C)C)CN1CC2 [(+)-α-dihydrotetrabenazine]
VMAT2 binding activity [1]: most active

COc1cc2c(cc1OC)[C@H]1C[C@H](O)[C@H](CC(C)C)CN1CC2 [(+)-β-dihydrotetrabenazine, (S,R,R)-3-isobutyl-9,10-dimethyloxy-1,3,4,5,7,11b-hexahydro-2H-pyrido[2,1-a]isoquinolin-2-ol]
activity as a VMAT2 binding agent [2]: significantly less active than the (+)-α-dihydrotetrabenazine isomer

COc1cc2c(cc1OC)[C@@H]1C[C@H](O)[C@@H](CC(C)C)CN1CC2 [(−)-α-dihydrotetrabenazine]
activity as a VMAT2 binding agent [2]: essentially active
